CycPeptMPDB entries from one study

Collected by the curators of CycPeptMPDB (Li et al. 2023) from Kelly et al. 2021, doi:10.1021/jacs.0c06115.

PAMPA is the parallel artificial membrane permeability assay, which has no cells and reads passive diffusion.
Permeability is in 10^-6 cm/s, converted from the database's log10 values; higher is more permeable.

Listed for CC(=O)N1CCC[C@H]1C(=O)N(C)[C@H](CC(C)C)C(=O)N[C@@H]1C(=O)N(C)[C@@H](CC(C)C)C(=O)N(C)[C@@H](CC(C)C)C(=O)N(C)[C@H](CC(C)C)C(=O)N(C)[C@@H](C)C(=O)N[C@H](CC(C)C)C(=O)N2CCC[C@H]2C(=O)O[C@@H]1C: PAMPA 0.93 × 10^-6 cm/s.
Listed for CC(=O)N1CCC[C@H]1C(=O)N(C)[C@H](CC(C)C)C(=O)N[C@@H]1C(=O)N[C@H](CC(C)C)C(=O)N(C)[C@H](CC(C)C)C(=O)N[C@H](CC(C)C)C(=O)N(C)[C@H](C)C(=O)N[C@@H](CC(C)C)C(=O)N2CCC[C@@H]2C(=O)O[C@@H]1C: PAMPA 6.2 × 10^-6 cm/s.
Listed for CC(=O)N1CCC[C@H]1C(=O)N(C)[C@@H](CC(C)C)C(=O)N[C@@H]1C(=O)N[C@@H](CC(C)C)C(=O)N[C@@H](CC(C)C)C(=O)N[C@H](CC(C)C)C(=O)N[C@@H](C)C(=O)N[C@@H](CC(C)C)C(=O)N2CCC[C@H]2C(=O)O[C@@H]1C: PAMPA 0.2 × 10^-6 cm/s.
Listed for CC(=O)N1CCC[C@@H]1C(=O)N(C)[C@H](CC(C)C)C(=O)N[C@@H]1C(=O)N[C@H](CC(C)C)C(=O)N(C)[C@H](CC(C)C)C(=O)N(C)[C@@H](CC(C)C)C(=O)N(C)[C@@H](C)C(=O)N[C@@H](CC(C)C)C(=O)N2CCC[C@H]2C(=O)O[C@@H]1C: PAMPA 2.6 × 10^-6 cm/s.
Listed for CC(=O)N1CCC[C@@H]1C(=O)N(C)[C@H](CC(C)C)C(=O)N[C@@H]1C(=O)N[C@@H](CC(C)C)C(=O)N(C)[C@H](CC(C)C)C(=O)N[C@H](CC(C)C)C(=O)N(C)[C@H](C)C(=O)N[C@H](CC(C)C)C(=O)N2CCC[C@H]2C(=O)O[C@@H]1C: PAMPA 0.32 × 10^-6 cm/s.
Listed for CC(=O)N1CCC[C@H]1C(=O)N(C)[C@H](CC(C)C)C(=O)N[C@@H]1C(=O)N(C)[C@@H](CC(C)C)C(=O)N(C)[C@H](CC(C)C)C(=O)N(C)[C@@H](CC(C)C)C(=O)N(C)[C@H](C)C(=O)N[C@H](CC(C)C)C(=O)N2CCC[C@H]2C(=O)O[C@@H]1C: PAMPA 4.6 × 10^-6 cm/s.
Listed for CC(=O)N1CCC[C@@H]1C(=O)N(C)[C@H](CC(C)C)C(=O)N[C@@H]1C(=O)N[C@H](CC(C)C)C(=O)N[C@H](CC(C)C)C(=O)N[C@H](CC(C)C)C(=O)N(C)[C@H](C)C(=O)N[C@H](CC(C)C)C(=O)N2CCC[C@@H]2C(=O)O[C@@H]1C: PAMPA 0.22 × 10^-6 cm/s.
Listed for CC(=O)N1CCC[C@H]1C(=O)N(C)[C@H](CC(C)C)C(=O)N[C@@H]1C(=O)N(C)[C@H](CC(C)C)C(=O)N(C)[C@@H](CC(C)C)C(=O)N[C@@H](CC(C)C)C(=O)N(C)[C@@H](C)C(=O)N[C@H](CC(C)C)C(=O)N2CCC[C@@H]2C(=O)O[C@@H]1C: PAMPA 7.2 × 10^-6 cm/s.
Listed for CC(=O)N1CCC[C@H]1C(=O)N(C)[C@H](CC(C)C)C(=O)N[C@@H]1C(=O)N[C@@H](CC(C)C)C(=O)N[C@@H](CC(C)C)C(=O)N(C)[C@H](CC(C)C)C(=O)N[C@@H](C)C(=O)N[C@@H](CC(C)C)C(=O)N2CCC[C@@H]2C(=O)O[C@@H]1C: PAMPA 0.01 × 10^-6 cm/s.
Listed for CC(=O)N1CCC[C@H]1C(=O)N[C@@H]1C(=O)N[C@H](CC(C)C)C(=O)N[C@@H](CC(C)C)C(=O)N(C)[C@@H](CC(C)C)C(=O)N[C@@H](CC(C)C)C(=O)N[C@H](C)C(=O)N[C@@H](CC(C)C)C(=O)N2CCC[C@@H]2C(=O)O[C@@H]1C: PAMPA 0.85 × 10^-6 cm/s.
Listed for CC(=O)N[C@@H]1C(=O)N2CCC[C@H]2C(=O)N(C)[C@H](CC(C)C)C(=O)N[C@@H](CC(C)C)C(=O)N[C@H](CC(C)C)C(=O)N[C@@H](CC(C)C)C(=O)N[C@@H](C)C(=O)N[C@@H](CC(C)C)C(=O)N2CCC[C@@H]2C(=O)O[C@@H]1C: PAMPA 0.34 × 10^-6 cm/s.
Listed for CC(=O)N1CCC[C@H]1C(=O)N[C@@H]1C(=O)N[C@H](CC(C)C)C(=O)N[C@@H](CC(C)C)C(=O)N[C@@H](CC(C)C)C(=O)N(C)[C@H](CC(C)C)C(=O)N(C)[C@@H](C)C(=O)N[C@@H](CC(C)C)C(=O)N2CCC[C@@H]2C(=O)O[C@@H]1C: PAMPA 2.6 × 10^-6 cm/s.
Listed for CC(=O)N1CCC[C@@H]1C(=O)N(C)[C@@H](CC(C)C)C(=O)N[C@@H]1C(=O)N[C@H](CC(C)C)C(=O)N[C@@H](CC(C)C)C(=O)N(C)[C@@H](CC(C)C)C(=O)N[C@@H](C)C(=O)N[C@H](CC(C)C)C(=O)N2CCC[C@H]2C(=O)O[C@@H]1C: PAMPA 0.78 × 10^-6 cm/s.
Listed for CC(=O)N1CCC[C@@H]1C(=O)N(C)[C@@H](CC(C)C)C(=O)N[C@@H]1C(=O)N(C)[C@H](CC(C)C)C(=O)N(C)[C@H](CC(C)C)C(=O)N[C@H](CC(C)C)C(=O)N(C)[C@H](C)C(=O)N[C@@H](CC(C)C)C(=O)N2CCC[C@H]2C(=O)O[C@@H]1C: PAMPA 5.1 × 10^-6 cm/s.
Listed for CC(=O)N1CCC[C@H]1C(=O)N(C)[C@H](CC(C)C)C(=O)N[C@@H]1C(=O)N(C)[C@H](CC(C)C)C(=O)N(C)[C@H](CC(C)C)C(=O)N[C@H](CC(C)C)C(=O)N(C)[C@H](C)C(=O)N[C@H](CC(C)C)C(=O)N2CCC[C@@H]2C(=O)O[C@@H]1C: PAMPA 3 × 10^-6 cm/s.
Listed for CC(=O)N[C@@H]1C(=O)N2CCC[C@H]2C(=O)N(C)[C@H](CC(C)C)C(=O)N[C@@H](CC(C)C)C(=O)N[C@H](CC(C)C)C(=O)N[C@@H](CC(C)C)C(=O)N[C@H](C)C(=O)N[C@@H](CC(C)C)C(=O)N2CCC[C@@H]2C(=O)O[C@@H]1C: PAMPA 0.1 × 10^-6 cm/s.
Listed for CC(=O)N1CCC[C@@H]1C(=O)N(C)[C@@H](CC(C)C)C(=O)N[C@@H]1C(=O)N[C@H](CC(C)C)C(=O)N[C@@H](CC(C)C)C(=O)N(C)[C@@H](CC(C)C)C(=O)N(C)[C@H](C)C(=O)N[C@@H](CC(C)C)C(=O)N2CCC[C@H]2C(=O)O[C@@H]1C: PAMPA 1.7 × 10^-6 cm/s.
Listed for CC(=O)N1CCC[C@H]1C(=O)N(C)[C@@H](CC(C)C)C(=O)N[C@@H]1C(=O)N(C)[C@H](CC(C)C)C(=O)N[C@@H](CC(C)C)C(=O)N(C)[C@H](CC(C)C)C(=O)N(C)[C@H](C)C(=O)N[C@@H](CC(C)C)C(=O)N2CCC[C@@H]2C(=O)O[C@@H]1C: PAMPA 2.6 × 10^-6 cm/s.
Listed for CC(=O)N1CCC[C@H]1C(=O)N[C@@H]1C(=O)N[C@H](CC(C)C)C(=O)N[C@@H](CC(C)C)C(=O)N[C@H](CC(C)C)C(=O)N[C@@H](CC(C)C)C(=O)N[C@H](C)C(=O)N[C@@H](CC(C)C)C(=O)N2CCC[C@@H]2C(=O)O[C@@H]1C: PAMPA 0.2 × 10^-6 cm/s.
Listed for CC(=O)N1CCC[C@@H]1C(=O)N(C)[C@H](CC(C)C)C(=O)N[C@@H]1C(=O)N(C)[C@H](CC(C)C)C(=O)N(C)[C@H](CC(C)C)C(=O)N[C@H](CC(C)C)C(=O)N(C)[C@H](C)C(=O)N[C@H](CC(C)C)C(=O)N2CCC[C@H]2C(=O)O[C@@H]1C: PAMPA 5 × 10^-6 cm/s.
Listed for CC(=O)N1CCC[C@@H]1C(=O)N(C)[C@@H](CC(C)C)C(=O)N[C@@H]1C(=O)N(C)[C@@H](CC(C)C)C(=O)N[C@@H](CC(C)C)C(=O)N(C)[C@@H](CC(C)C)C(=O)N(C)[C@@H](C)C(=O)N[C@@H](CC(C)C)C(=O)N2CCC[C@@H]2C(=O)O[C@@H]1C: PAMPA 2.4 × 10^-6 cm/s.

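Conditions beyond the assay type are not listed; see the original paper. Other peptides of the study may be missing here. Peptides that the database sets to -10, its floor, are left out.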